Literature values, collected in patent US20050203105A1, “Composition and method for controlling alcohol-induced facial flushing in susceptible humans” (priority 2003, published 2005).

test system: muscarinic receptors; details: not given

Compound | Anticholinergic activity
COc1ccc(CCN2CCC(Nc3nc4ccccc4n3Cc3ccc(F)cc3)CC2)cc1 [Astemizole] | ±
CN(C)CCC(c1ccc(Cl)cc1)c1ccccn1 (stereo not drawn) [Chlorpheniramine] | ++
CN(C)CC[C@@H](c1ccc(Cl)cc1)c1ccccn1 [Dexchlorpheniramine] | ++
CC(CN1c2ccccc2Sc2ccccc21)N(C)C (stereo not drawn) [Promethazine] | +++
COc1ccc(CN(CCN(C)C)c2ccccn2)cc1 [Pyrilamine] | ±

test system: not given; details: oral

Compound | duration of effects
COc1ccc(CCN2CCC(Nc3nc4ccccc4n3Cc3ccc(F)cc3)CC2)cc1 [Astemizole] | up to 24 hours
